How the values were obtained:
[1] = tested on: human primary glioblastoma cell line U87; experiment: MTT cell viability assay, U87; format: cell-based; settings: read-out: Antiproliferative Effect IC50 U87, 72 h, n≥3, each in triplicate wells
[2] = tested on: γ-H2AX formation in Cal27 cells; experiment: γ-H2AX expression DNA damage assay; format: cell-based, human; settings: 24 h
[3] = tested on: human tongue squamous cell carcinoma cell line Cal27; experiment: MTT cell viability assay, Cal27; format: cell-based; settings: read-out: Antiproliferative Effect IC50 Cal27, 72 h, n≥3, each in triplicate wells
[4] = tested on: human primary glioblastoma cell line U251; experiment: MTT cell viability assay, U251; format: cell-based; settings: read-out: Antiproliferative Effect IC50 U251, 72 h, n≥3, each in triplicate wells, n.e.: no effect up to 100 μM
human recombinant HDAC6 = human recombinant HDAC6 (Homo sapiens, UniProt Q9UBN7); experiment: In-vitro human HDAC6 fluorogenic inhibition assay (ZMAL substrate); format: biochemical; settings: read-out: Target Inhibition IC50 HDAC6, n≥2, each in duplicate wells
HDAC1 = HDAC1 (Homo sapiens, UniProt Q13547); experiment: In-vitro human HDAC1 fluorogenic inhibition assay (ZMAL substrate); format: biochemical; settings: read-out: Target Inhibition IC50 HDAC1, n≥2, each in duplicate wells

Amino acid sequences for entries named in this document (tags omitted).
UniProt Q9UBN7, whole entry: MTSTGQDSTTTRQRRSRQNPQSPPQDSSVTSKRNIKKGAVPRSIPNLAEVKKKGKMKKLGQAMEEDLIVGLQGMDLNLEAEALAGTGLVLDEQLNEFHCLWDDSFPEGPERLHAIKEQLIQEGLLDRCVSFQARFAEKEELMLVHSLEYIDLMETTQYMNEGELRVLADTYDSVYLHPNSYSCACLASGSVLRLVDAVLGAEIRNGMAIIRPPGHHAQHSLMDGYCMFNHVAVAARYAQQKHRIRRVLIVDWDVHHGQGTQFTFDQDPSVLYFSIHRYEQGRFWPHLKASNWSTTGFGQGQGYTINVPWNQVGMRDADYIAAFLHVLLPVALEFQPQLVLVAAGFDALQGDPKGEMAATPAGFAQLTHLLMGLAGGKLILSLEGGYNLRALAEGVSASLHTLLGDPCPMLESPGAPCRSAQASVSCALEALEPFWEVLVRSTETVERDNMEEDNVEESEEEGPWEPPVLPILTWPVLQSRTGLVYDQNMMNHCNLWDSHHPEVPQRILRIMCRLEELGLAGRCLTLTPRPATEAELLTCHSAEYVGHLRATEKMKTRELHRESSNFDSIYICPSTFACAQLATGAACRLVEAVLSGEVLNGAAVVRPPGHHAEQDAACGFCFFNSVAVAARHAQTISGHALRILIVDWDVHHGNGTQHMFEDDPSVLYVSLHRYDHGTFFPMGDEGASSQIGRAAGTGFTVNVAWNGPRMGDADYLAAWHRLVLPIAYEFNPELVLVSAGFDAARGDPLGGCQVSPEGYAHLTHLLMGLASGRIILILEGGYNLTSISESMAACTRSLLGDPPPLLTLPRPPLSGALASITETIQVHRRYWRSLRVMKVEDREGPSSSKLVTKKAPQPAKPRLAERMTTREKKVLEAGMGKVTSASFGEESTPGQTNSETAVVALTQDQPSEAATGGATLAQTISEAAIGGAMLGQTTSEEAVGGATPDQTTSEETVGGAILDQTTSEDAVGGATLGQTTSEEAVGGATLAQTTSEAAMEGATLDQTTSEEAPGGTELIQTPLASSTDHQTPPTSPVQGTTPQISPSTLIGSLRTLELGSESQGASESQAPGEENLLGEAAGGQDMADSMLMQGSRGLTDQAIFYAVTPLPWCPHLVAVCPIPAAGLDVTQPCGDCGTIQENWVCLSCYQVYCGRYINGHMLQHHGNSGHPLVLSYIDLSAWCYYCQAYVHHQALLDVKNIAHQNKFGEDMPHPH
UniProt Q13547, whole entry: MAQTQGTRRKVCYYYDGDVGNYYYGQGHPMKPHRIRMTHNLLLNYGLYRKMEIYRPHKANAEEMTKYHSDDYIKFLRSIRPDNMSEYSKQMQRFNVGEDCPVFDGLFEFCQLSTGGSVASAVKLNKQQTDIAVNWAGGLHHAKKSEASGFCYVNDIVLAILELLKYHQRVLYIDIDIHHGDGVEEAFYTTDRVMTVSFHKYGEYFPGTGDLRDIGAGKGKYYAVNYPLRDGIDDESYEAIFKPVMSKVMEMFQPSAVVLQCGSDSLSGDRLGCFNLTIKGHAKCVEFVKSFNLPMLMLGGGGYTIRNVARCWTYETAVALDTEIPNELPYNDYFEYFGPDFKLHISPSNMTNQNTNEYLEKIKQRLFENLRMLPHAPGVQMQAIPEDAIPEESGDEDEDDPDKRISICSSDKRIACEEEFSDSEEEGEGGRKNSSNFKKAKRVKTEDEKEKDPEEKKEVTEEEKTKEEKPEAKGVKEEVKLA

Compound	IC50 [1]	γ-H2AX formation ([2]; IC50 (from MTT assay))	γ-H2AX formation ([2]; fivefold IC50 (from MTT assay))	IC50 [3]	IC50 [4]	IC50 (human recombinant HDAC6)	IC50 (HDAC1)
O=C(/C=C/c1ccc(CNC(=O)c2ncn3c(=O)n(CCCl)nnc23)cc1)NO	84.3 µM	not different from control	only weak DNA damage	10.1 µM	32.2 µM	51 nM	122 nM
Cn1nnc2c(C(=O)NCc3ccc(C(=O)NO)cc3)ncn2c1=O	165 µM	–	–	16.2 µM	98.7 µM	35 nM	705 nM

From PMC7756583, “Hydroxamic Acids Immobilized on Resins (HAIRs): Synthesis of Dual‐Targeting HDAC Inhibitors and HDAC Degraders (PROTACs)” (Angewandte Chemie (International Ed. in English), 2020)
